Results: PubChem BioAssay AID818 (SRMLSC, 2007)
Only a part is listed here, and it is no random draw. The source made the active and inactive calls.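 How the source made its calls: active means viability at or under a set limit, the compound median less 4 SD (cut at about 6% in these data); inactive means the rest.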

Experiment: primary screen for suppressors of beta-catenin knockout HCT116 cell growth, colon tumor, human (AID 818);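 further: 0% = Hyamine 1622 control at 20 µM and 100% = untreated cell control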
Conditions: CellTiter-Glo, 60 h, at 10 µM, stronger effect = lower value

Compound	viability
c1ccc(CN2CCC(Nc3ccccc3)CC2)cc1	inactive: 90.3%
N/C(=N\O)c1c(N)no[n+]1[O-]	inactive: 92.5%
O=C(OC1CN2CCC1CC2)C1c2ccccc2C=Cc2ccccc21 (stereo not drawn)	inactive: 65.6%
CCOc1ncccc1C(=O)NCC1(N2CCOCC2)CCCCC1	inactive: 91.4%
CCC(CO)(C(=O)OC1CN2CCC1CC2)c1ccccc1 (stereo not drawn)	inactive: 103%
Fc1ccccc1NC1CCN(Cc2ccccc2)CC1	inactive: 80%
CCN1CCC(Nc2cccc(F)c2)CC1	inactive: 100%
COc1ccc(NC2CCN(CCc3ccccc3)CC2)c(OC)c1	inactive: 89.1%
O=C(NCC1(N2CCOCC2)CCCCC1)c1cc2ccccc2o1	inactive: 94.1%
O=C(OC1CN2CCC1CC2)C1c2ccccc2Oc2ccccc21 (stereo not drawn)	inactive: 102%
N#CC1(Nc2ccccc2)CCN(CCc2ccccc2)CC1	inactive: 96.8%
O=C(NCC1(N2CCOCC2)CCCCC1)c1cc(=O)[nH]c2ccccc12	inactive: 80.1%
CN1CCN(CCOC(=O)C(O)(c2ccccc2)c2ccccc2)CC1	inactive: 105%
